# Test results published in patent US20240002326A1, “COMPOUNDS AND USE THEREOF IN METHODS OF TREATMENT” (The University of Queensland, priority 2016, published 2024).
# Sequences of proteins named here, by UniProt entry; tags and fusion partners are left off.
# UniProt Q96DB2, whole entry: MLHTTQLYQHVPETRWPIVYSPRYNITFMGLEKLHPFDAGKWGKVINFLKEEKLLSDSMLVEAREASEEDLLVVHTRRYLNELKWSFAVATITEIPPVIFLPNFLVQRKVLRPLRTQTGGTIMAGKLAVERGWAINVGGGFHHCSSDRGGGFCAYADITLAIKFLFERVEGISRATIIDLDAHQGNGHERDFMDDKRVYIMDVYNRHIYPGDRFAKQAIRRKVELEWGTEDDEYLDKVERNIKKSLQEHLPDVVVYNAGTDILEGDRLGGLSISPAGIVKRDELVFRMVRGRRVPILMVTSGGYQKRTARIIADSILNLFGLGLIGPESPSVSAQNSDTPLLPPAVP
# Key:
# [1] = biological target: HDAC11 (Homo sapiens (Human), UniProt Q96DB2); assay: Recombinant-enzyme fluorimetry assay, HDAC11
# [2] = test system: scrambled DNA; assay: Direct DNA-binding assay (SPR), scrambled DNA; details: biotinylated double-strand DNA on streptavidin chip
# Procedure: Compounds were tested at a 1% v/v DMSO in HBS-EP buffer (10 mM HEPES, 150 mM NaCl, 3 mM EDTA, 0.005% v/v polysorbate 20, pH 7.4). The same buffer supplemented with 1% v/v DMSO was used as a mobile phase. DNA minor groove binder DAPI (4′,6-diamidino-2-phenylindole), DNA intercalator and minor groove binder actinomycin D, and DNA intercalator ethidium bromide were used as positive controls. Biotinylated (one tag per probe) double strand DNA probes were prepared using a standard annealing routine (5 min at 100° C., room temperature overnight and stored at −20° C.) of single strand anti-parallel DNA Probes purchased from Geneworks and were immobilized on CM5-SA streptavidin chips as per manufacturer's recommendations. […] All sample and control cycles were performed in triplicate. DMSO calibration was performed as per manufacturer's recommendations. After each injection, an extra flow system wash was performed with 50% v/v DMSO to avoid carryover. Experiments were run on a Biacore T200 (GE Healthcare, USA), with one flow cell kept as a reference.
# From a molecular viewpoint, an inhibitor of SOX18-DNA binding could act either by interacting directly with the DNA, or the protein, or at the interface between protein and DNA. […]
# [3] = test system: SOX18 overexpressing HUVECs; assay: RNA-seq / ChIP-seq distance-to-TSS analysis in SOX18 overexpressing HUVECs; assay type: cell-based, human; details: 25 μM Sm4, HUVECs
# Procedure: Following IP, DNA amplification was performed using TruSeq ChIPseq kit (Illumina, IP-202-1012), using 0.5 μM of the universal reverse PCR primer and the forward PCR primer containing the index sequence of choice in 50 μL 1×NEBNext High-Fidelity PCR Master Mix (New England Biolabs, M0541). The number of PCR cycles ranged from 13 to 18, depending on the ChIP efficiency. The PCR product was purified using AMPure beads (1.8 volume) and eluted in 20 μL of resuspension buffer (Tris-Acetate 10 mM pH 8). The library was quantified using the KAPA library quantification kit for Illumina sequencing platforms (KAPA Biosystems, KK4824) and 50 bp single end reads were sequenced on a HiSeq2500 following the manufacturer's protocol. Illumina fastq files were mapped to the GRCh37/UCSC hg19 genome assembly using bowtie, and peaks were called using MACS version 2.1.0. using input. […]
# Quadruplicate samples were processed for whole transcriptome sequencing using TruSeq stranded total RNA library prep kit (Illumina). Reads were mapped to the hg19 reference human genome using STAR aligner (Dobin et al. 2013), and only uniquely aligned reads were considered. Transcripts were assigned to genes using htseq_count (HTseq package) (Anders, Pyl, and Huber 2015), and differential expression was calculated using DEseq2 (Love, Huber, and Anders 2014). […]
smiles,measurement,setting,value
O=C(O)c1c(O)cccc1CCc1ccc2ccccc2c1,Inhibition at 10 μM (%),[1],−29.1%
same,binding to scrambled DNA (SPR),[2],do not bind
same,SOX18 peaks closer to TSS of Sm4 down-regulated genes than to random TSSs,[3],3.6 fold
same,TSS of Sm4 down-regulated genes closer to c-JUN binding events,[3],2.05 fold
